Molecular target: T1, p38 MAP kinase (Homo sapiens, UniProt Q16539)
T1 construct: made in house; host or cells: E. coli (co-expressed with SEK-1 and MEKK to phosphorylate p38)
Experiment: in vitro inhibition of p-38 (MAP) kinase, transfer of γ-33P from ATP to Myelin Basic Protein
Type: biochemical
Protocol: This example illustrate an assay protocol for determining in vitro inhibition of p-38 (MAP) Kinase.
The phosphorylated form of the recombinant p38 MAP kinase was expressed with SEK-1 and MEKK in E. Coli and then purified by affinity chromatography using a Nickel column.
The phosphorylated p38 MAP kinase was diluted in kinase buffer (20 mM 3-(N-morpholino)propanesulfonic acid, pH 7.2, 25 mM β-glycerol phosphate, 5 mM ethylene glycol-bis(beta-aminoethyl ether)-N,N,N′,N′-tetraacetic acid, 1 mM sodium vanadate, 1 mM dithiothreitol, 40 mM magnesium chloride). Test compound dissolved in DMSO or only DMSO (control) was added and the samples were incubated for 10 min at 30° C. The kinase reaction was initiated by the addition of a substrate cocktail containing MBP and γ-^33P-ATP. After incubating for an additional 20 min at 30° C., the reaction was terminated by adding 0.75% phosphoric acid. The phosphorylated MBP was then separated from the residual γ-^33P-ATP using a phosphocellulose membrane (Millipore, Bedford, Mass.) and quantitated using a scintillation counter (Packard, Meriden, Conn.).

Chains of the proteins cited; added tags and fusions are not shown.
UniProt Q16539, whole entry: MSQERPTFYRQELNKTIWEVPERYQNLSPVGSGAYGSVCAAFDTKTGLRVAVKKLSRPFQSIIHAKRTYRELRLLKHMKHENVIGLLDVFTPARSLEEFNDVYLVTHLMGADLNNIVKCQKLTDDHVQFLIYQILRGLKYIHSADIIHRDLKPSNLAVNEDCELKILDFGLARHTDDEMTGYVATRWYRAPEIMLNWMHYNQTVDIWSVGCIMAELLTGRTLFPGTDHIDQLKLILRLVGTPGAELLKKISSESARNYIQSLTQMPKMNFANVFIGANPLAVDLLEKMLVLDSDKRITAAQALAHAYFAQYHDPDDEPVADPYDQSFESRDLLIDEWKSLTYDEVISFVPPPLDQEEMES

Work on Cn1c(=O)c(-c2ccccc2Cl)cc2cnc(NC3CCOCC3)nc21 [Example 63] yielded an IC50 of 7.3 nM.

— patent publication US6506749B2, “7-oxo-pyridopyrimidines (I)” (Syntex (U.S.A.) LLC, priority 2000, dated 2003)
